Assay results reported in the supplement of paper PMC11403291.

Sequences of proteins named here, by UniProt entry; tags and fusion partners are left off. A change or cut given only in a name is not applied to a line headed by its entry.
UniProt Q13131: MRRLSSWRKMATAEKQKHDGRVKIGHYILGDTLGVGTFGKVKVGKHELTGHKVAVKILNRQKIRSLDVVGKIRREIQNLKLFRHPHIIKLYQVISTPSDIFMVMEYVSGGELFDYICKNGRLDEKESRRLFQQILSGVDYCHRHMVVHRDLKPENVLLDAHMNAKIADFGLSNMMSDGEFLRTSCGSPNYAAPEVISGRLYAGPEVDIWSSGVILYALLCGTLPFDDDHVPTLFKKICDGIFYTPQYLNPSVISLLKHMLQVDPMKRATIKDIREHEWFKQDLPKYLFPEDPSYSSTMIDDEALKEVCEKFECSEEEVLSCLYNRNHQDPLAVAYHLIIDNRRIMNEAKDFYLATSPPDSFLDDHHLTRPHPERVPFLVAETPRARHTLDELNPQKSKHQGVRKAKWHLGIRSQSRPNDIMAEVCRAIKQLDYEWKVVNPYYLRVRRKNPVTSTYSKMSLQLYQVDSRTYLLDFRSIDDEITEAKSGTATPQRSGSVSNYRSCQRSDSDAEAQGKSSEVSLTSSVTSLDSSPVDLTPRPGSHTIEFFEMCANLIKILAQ
UniProt P00519, whole entry: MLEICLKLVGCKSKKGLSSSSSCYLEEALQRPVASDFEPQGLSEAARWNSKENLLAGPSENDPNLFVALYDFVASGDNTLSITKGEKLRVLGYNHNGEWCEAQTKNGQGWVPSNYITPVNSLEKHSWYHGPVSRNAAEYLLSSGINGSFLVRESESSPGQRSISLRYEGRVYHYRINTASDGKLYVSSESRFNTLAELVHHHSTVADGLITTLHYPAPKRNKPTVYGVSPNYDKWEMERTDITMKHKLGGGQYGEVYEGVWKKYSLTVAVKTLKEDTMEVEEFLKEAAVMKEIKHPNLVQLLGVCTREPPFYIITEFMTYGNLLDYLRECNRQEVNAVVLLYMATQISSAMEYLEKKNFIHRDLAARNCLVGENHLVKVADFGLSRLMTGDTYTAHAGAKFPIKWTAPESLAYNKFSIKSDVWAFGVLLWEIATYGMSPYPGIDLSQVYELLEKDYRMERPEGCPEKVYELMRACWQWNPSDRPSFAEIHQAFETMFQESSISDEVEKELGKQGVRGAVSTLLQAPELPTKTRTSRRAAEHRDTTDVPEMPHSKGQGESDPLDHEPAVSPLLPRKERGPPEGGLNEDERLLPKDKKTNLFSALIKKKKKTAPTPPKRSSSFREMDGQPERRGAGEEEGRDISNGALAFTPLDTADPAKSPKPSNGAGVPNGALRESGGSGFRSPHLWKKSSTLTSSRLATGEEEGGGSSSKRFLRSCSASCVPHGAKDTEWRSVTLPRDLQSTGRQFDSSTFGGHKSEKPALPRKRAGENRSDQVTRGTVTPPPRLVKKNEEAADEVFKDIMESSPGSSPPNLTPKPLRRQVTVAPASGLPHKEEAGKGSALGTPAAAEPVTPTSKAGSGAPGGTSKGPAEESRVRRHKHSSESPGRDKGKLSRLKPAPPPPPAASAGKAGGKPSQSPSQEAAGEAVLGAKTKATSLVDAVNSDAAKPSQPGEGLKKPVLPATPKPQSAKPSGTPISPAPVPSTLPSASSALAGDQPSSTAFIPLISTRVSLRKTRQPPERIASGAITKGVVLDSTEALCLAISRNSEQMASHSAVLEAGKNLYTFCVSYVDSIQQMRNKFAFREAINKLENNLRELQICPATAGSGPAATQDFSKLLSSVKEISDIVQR
UniProt P41240: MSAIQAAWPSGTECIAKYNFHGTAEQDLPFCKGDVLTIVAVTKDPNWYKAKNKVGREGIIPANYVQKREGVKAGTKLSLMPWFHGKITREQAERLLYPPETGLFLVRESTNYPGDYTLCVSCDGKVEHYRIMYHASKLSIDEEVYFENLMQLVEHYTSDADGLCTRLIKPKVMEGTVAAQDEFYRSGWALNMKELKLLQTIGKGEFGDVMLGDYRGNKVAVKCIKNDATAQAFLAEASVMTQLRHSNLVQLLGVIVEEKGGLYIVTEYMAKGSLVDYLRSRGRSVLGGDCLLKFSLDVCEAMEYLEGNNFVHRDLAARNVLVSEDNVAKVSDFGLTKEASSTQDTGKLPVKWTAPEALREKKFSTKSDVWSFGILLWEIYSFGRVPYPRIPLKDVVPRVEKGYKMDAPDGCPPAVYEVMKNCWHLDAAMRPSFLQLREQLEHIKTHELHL
UniProt P04629: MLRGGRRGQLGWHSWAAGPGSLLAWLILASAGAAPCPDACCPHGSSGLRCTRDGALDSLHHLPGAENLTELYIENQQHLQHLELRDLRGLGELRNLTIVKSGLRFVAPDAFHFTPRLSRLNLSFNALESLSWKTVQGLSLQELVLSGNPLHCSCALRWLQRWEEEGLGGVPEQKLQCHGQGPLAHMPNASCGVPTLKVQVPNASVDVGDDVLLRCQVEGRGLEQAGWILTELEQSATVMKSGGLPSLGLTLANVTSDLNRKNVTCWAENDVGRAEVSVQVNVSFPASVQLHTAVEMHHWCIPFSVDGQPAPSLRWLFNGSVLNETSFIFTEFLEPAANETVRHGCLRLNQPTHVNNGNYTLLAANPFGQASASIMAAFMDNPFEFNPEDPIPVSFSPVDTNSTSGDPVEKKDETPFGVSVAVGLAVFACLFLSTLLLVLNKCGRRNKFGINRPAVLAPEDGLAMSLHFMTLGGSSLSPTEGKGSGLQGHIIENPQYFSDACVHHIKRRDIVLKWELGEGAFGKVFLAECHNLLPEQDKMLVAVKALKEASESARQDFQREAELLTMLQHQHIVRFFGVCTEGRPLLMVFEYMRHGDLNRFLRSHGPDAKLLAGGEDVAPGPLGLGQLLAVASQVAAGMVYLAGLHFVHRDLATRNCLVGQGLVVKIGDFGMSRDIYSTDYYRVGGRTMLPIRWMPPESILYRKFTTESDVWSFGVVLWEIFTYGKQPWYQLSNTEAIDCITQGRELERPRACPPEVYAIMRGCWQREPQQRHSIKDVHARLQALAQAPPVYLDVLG

Key:
Assay in all cases: apparent dissociation constant pKd app (kinobead competition) (-log10(M)); higher = stronger binding
PRKAA1 = PRKAA1 (UniProt Q13131)
ABL1 = ABL1 (UniProt P00519)
GSG2 = target: T1, GSG2 (UniProt Q8TF76)
T1 sequence (whole entry): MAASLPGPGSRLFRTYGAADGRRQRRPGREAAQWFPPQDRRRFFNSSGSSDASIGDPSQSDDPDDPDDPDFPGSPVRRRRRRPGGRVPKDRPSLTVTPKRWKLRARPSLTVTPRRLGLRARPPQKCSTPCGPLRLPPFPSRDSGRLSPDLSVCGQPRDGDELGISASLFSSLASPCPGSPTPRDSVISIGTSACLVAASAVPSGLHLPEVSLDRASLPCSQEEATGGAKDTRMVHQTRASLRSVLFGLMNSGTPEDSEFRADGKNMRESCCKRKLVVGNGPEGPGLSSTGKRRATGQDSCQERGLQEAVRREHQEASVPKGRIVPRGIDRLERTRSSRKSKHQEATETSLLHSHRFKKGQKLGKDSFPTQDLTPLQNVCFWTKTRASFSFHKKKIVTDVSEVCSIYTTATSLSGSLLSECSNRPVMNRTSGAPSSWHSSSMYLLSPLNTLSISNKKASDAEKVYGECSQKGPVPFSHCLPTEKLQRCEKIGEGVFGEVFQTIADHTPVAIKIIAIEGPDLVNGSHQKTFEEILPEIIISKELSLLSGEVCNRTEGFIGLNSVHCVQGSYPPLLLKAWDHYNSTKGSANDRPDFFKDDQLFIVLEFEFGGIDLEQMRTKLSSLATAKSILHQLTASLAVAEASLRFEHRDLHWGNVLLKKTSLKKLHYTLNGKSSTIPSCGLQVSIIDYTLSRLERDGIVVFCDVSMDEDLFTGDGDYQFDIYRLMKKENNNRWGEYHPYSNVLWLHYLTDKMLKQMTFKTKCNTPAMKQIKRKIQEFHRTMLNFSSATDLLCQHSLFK

CSK = CSK (UniProt P41240)
TNK1 = target: T2, TNK1 (UniProt Q13470)
T2 sequence (whole entry): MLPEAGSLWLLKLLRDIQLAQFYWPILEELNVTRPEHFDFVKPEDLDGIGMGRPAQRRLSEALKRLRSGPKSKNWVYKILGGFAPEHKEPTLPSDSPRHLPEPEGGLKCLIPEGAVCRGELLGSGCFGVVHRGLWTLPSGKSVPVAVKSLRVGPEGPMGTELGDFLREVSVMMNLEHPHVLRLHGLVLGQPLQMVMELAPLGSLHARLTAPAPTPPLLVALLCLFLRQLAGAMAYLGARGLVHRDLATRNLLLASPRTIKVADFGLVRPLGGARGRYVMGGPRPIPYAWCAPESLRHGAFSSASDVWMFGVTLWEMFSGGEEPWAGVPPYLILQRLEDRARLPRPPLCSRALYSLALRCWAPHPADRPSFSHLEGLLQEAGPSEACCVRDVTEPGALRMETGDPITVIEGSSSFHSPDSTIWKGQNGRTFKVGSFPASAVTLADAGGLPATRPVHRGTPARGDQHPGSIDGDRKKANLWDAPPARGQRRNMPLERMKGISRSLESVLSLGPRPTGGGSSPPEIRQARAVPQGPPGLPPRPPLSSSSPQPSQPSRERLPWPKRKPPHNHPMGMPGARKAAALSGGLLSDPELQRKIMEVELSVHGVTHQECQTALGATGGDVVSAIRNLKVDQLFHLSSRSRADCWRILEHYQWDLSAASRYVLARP

NTRK1 = NTRK1 (UniProt P04629)
CDK2 = CDK2 (UniProt P24941)
PRKG1 = target: T3, PRKG1 (UniProt Q13976)
T3 sequence (whole entry): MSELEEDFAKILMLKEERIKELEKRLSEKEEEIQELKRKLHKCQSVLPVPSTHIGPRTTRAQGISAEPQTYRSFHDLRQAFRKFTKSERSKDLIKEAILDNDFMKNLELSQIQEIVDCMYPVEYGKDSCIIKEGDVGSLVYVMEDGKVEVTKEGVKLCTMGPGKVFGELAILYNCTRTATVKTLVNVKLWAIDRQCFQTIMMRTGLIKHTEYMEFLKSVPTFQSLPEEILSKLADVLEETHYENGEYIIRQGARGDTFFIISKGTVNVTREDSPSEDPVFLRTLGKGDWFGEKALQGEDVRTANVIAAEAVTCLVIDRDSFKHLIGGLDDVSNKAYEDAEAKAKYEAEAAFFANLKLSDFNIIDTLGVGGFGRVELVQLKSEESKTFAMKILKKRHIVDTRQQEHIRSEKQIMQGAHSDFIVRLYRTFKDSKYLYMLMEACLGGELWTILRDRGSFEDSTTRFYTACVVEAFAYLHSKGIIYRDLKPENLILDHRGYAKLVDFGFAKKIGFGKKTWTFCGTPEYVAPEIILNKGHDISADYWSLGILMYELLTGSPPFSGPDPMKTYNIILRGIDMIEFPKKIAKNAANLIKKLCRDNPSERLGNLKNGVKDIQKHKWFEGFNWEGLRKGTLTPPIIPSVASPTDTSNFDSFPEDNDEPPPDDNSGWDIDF

apparent dissociation constant pKd app (-log10) (PRKAA1)	apparent dissociation constant pKd app (-log10) (ABL1)	apparent dissociation constant pKd app (-log10) (GSG2)	apparent dissociation constant pKd app (-log10) (CSK)	apparent dissociation constant pKd app (-log10) (TNK1)	apparent dissociation constant pKd app (-log10) (NTRK1)	apparent dissociation constant pKd app (-log10) (CDK2)	apparent dissociation constant pKd app (-log10) (PRKG1)	Compound
< 4.8	< 4.7	< 4.6	< 4.6	< 4.9	< 4.7	< 4.7	< 4.6	O=C(c1cc(Cc2n[nH]c(=O)c3ccccc23)ccc1F)N1CCN(C(=O)C2CC2)CC1 [Olaparib]
< 4.8	< 4.7	< 4.6	< 4.6	< 4.9	< 4.7	< 4.7	< 4.6	NC(=O)c1cccc2cn(-c3ccc([C@@H]4CCCNC4)cc3)nc12 [Niraparib]
< 4.8	< 4.7	< 4.6	< 4.6	< 4.9	< 4.7	< 4.7	< 4.6	Cn1ncnc1[C@H]1c2n[nH]c(=O)c3cc(F)cc(c23)N[C@@H]1c1ccc(F)cc1 [Talazoparib]
